This note sets out measurements from ChEMBL document CHEMBL1135241 (Bioorg Med Chem Lett, 2002).

Protein sequences, listed by entry. Tags and fused reporters are not part of them.
UniProt P32300, whole entry: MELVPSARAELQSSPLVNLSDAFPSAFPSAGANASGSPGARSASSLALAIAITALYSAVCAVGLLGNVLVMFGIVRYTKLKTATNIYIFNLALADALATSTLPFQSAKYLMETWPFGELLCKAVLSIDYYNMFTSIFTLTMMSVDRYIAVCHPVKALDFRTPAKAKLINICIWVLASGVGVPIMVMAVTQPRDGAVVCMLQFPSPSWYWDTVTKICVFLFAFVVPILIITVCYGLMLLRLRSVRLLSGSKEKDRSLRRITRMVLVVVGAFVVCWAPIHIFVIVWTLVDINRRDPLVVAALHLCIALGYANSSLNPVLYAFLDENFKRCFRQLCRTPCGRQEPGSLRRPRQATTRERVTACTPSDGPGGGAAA

pIC50: −log10 of the molar value.

The test addresses Delta-type opioid receptor (Mus musculus, UniProt P32300). Briefly: In vitro biological activity by electrically induced smooth muscle contractions in mouse vas deferens (Opioid receptor delta 1); inhibitory concentration was evaluated. Type of test: functional.

Broadly, the pIC50 is the IC50 on a negative log10 scale, so that one unit is a factor of ten. Low readings indicate a high IC50, high ones a low IC50. Regarding `CC(C)[C@H](NC(=O)[C@H](CC(=O)O)NC(=O)[C@H](Cc1ccccc1)NC(=O)[C@@H](C)NC(=O)[C@@H](N)Cc1ccc(O)cc1)C(=O)N[C@H](C(=O)NCC(N)=O)C(C)C` [DELTORPHIN C], the pIC50 is 9.24.
